Measured values published in PubChem BioAssay (Tox21).
Where “and” joins values, the source holds several entries; their conditions need not be identical. Equal values may be shown once. This is a selection; strong and weak results do not stand in their true shares. Results filed as inconclusive are left out. Calls of active or inactive are those of the source. Unless noted, calls follow the shape of the dose curve; as a rule, active = well fitted curve in the direction sought with a large enough effect in the repeat runs; inconclusive = weak or mixed curves; inactive = no such curve, though single readings can be large; an effect the other way counts as inactive or inconclusive.

Chains of the proteins cited; added tags and fusions are not shown.
UniProt P10275, whole entry: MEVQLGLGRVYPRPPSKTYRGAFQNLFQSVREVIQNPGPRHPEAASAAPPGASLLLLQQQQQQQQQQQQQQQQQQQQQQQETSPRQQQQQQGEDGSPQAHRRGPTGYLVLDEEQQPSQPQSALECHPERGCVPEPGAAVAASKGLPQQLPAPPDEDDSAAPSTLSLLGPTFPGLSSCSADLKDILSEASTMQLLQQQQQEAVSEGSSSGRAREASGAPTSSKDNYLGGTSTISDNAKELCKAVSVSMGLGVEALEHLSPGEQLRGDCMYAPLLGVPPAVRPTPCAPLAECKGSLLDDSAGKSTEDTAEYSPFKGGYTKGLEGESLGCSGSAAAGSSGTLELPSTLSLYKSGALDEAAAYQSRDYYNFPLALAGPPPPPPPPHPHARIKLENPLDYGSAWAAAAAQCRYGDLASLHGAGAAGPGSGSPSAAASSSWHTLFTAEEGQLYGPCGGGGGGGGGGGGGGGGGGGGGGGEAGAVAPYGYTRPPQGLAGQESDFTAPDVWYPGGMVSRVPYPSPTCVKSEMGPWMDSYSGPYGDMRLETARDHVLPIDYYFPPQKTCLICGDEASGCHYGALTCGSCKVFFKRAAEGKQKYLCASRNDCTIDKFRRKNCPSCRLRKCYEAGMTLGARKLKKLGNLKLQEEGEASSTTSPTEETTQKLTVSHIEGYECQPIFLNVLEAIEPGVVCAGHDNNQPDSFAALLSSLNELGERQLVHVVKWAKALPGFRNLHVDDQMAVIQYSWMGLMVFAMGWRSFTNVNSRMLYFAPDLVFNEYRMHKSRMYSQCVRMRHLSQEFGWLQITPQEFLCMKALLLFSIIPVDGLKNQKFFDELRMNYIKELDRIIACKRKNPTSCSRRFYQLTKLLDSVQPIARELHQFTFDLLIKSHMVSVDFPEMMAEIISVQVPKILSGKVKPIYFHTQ
UniProt P03372, whole entry: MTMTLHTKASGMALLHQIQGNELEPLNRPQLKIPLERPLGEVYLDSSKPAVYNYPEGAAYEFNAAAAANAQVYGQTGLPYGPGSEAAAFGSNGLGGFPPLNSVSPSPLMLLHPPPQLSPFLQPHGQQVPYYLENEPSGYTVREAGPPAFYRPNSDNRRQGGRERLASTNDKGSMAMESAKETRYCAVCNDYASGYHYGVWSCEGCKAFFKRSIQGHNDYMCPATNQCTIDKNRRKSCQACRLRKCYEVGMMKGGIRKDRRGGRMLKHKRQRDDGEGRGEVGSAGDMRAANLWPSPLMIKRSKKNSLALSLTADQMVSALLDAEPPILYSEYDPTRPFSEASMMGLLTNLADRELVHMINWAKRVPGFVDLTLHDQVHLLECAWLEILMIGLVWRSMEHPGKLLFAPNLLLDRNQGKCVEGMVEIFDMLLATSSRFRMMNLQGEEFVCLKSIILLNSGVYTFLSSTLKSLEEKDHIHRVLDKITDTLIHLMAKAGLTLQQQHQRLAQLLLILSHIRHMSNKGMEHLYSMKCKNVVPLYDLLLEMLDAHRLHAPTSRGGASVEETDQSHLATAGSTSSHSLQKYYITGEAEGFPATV
UniProt Q92731, whole entry: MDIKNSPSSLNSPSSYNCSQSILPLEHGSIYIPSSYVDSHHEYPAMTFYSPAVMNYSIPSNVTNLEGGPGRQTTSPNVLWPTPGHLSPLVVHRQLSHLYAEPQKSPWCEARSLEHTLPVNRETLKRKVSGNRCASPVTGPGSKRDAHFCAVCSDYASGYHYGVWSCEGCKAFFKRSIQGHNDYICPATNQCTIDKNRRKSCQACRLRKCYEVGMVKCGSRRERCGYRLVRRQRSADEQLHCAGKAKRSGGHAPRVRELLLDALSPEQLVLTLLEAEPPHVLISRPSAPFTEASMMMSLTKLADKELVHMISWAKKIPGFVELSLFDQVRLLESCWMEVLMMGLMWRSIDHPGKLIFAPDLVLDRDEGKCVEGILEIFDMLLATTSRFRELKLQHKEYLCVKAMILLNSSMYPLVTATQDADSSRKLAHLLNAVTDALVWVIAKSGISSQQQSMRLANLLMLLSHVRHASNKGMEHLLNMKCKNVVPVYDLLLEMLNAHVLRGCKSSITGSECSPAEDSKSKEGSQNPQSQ

Key:
[1] = A CellTox Green Cytotoxicity Assay to monitor cytotoxicity in HepG2 cells - 0 hour (AID 1224882); also: nearly all actives have a fitted effect of over 35% in size
Outline: (§1)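 HepG2 cells, 600/well, preincubated 5 h with CellTox Green dye, then exposed to Tox21 compounds in DMSO at 37 C for up to 40 h. Dead-cell DNA fluorescence read at the indicated time point.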

[2] = A CellTox Green Cytotoxicity Assay to monitor cytotoxicity in HepG2 cells - 32 hour (AID 1224883); also: nearly all actives have a fitted effect of over 50% in size
Outline: as §1

[3] = qHTS RealTime-Glo MT Cell Viability Assay in HepG2 cells - 16 hour (AID 1224885); conditions: RealTime-Glo luminescence; at 76.8 µM (top of the series) unless noted; also: nearly all actives have a fitted effect of over 50% in size
Outline: (§2)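 Compound treatment began 5 h after plating HepG2 cells (600/well) with NanoLuc luciferase and prosubstrate. Plates stayed at 37 C for 40 h; luminescence was captured at six time points, 0 h through 40 h.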

[4] = qHTS RealTime-Glo MT Cell Viability Assay in HEK293 cells - 8 hour (AID 1224887); conditions: RealTime-Glo luminescence; at 76.8 µM (top of the series) unless noted; also: top concentration of the series differs between compounds; nearly all actives have a fitted effect of over 50% in size
Outline: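 600 cells/well were plated with the nonlytic NanoLuc/prosubstrate reagent, pre-incubated 5 h, then given 23 nL of compound in DMSO. Incubation at 37 C for 40 h, with luminescence from viable-cell-reduced substrate read repeatedly from 0 h.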

[5] = A CellTox Green Cytotoxicity Assay to monitor cytotoxicity in HEK293 cells - 16 hour (AID 1224888); also: nearly all actives have a fitted effect of over 35% in size
Outline: (§3)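 HEK293 cells, 600/well, were preincubated 5 hours and then exposed to compounds at 37 C for up to 40 hours. A cell-impermeant cyanine dye staining dead-cell DNA was read by fluorescence at 0, 8, 16, 24, 32 and 40 h time points.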

[6] = qHTS RealTime-Glo MT Cell Viability Assay in HepG2 cells - 0 hour (AID 1224889); conditions: RealTime-Glo luminescence; at 76.8 µM (top of the series) unless noted; also: nearly all actives have a fitted effect of over 50% in size
Outline: as §2

[7] = A CellTox Green Cytotoxicity Assay to monitor cytotoxicity in HepG2 cells - 8 hour (AID 1224890); also: nearly all actives have a fitted effect of over 45% in size
Outline: as §1

[8] = qHTS assay to identify small molecule antagonists of the estrogen receptor alpha (ER-alpha) signaling pathway using the BG1 cell line in the presence of 0.1 nM 17-beta-estradiol - cell viability counter screen (AID 1259241); also: nearly all actives have a fitted effect of over 40% in size; also: potency is read from the fitted curve at half-maximal effect
Outline: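 Following 5 days in phenol red-free medium with charcoal-stripped serum, VM7Luc4E2 cells received test compounds alongside 0.1 nM 17beta-estradiol (final) at 37C for 22 hr. Live cells were then quantified via protease-substrate fluorescence.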

[9] = qHTS assay to identify small molecule antagonists of the androgen receptor (AR) signaling pathway using the MDA cell line in the presence of 0.5 nM R1881 - cell viability counter screen (AID 1259242); conditions: MDA-kb2 viability, CellTiter-Fluor protease fluorescence, 16 h; also: nearly all actives have a fitted effect of over 45% in size
Outline: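 MDA-kb2 cells (MMTV-luciferase, AR/GR responsive) were treated with compounds plus 0.5 nM R1881 (final) for 16 hr at 37C, 0% CO2. Viability was then read in the same wells as live-cell protease fluorescence (CellTiter-Fluor, 30 min).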

[10] = biological target: Androgen receptor (Homo sapiens) (UniProt P10275); experiment: qHTS assay to identify small molecule antagonists of the androgen receptor (AR) signaling pathway using the MDA cell line in the presence of 0.5 nM R1881 (AID 1259243); also: nearly all actives have a fitted effect of over 50% in size
[11] = biological target: Estrogen receptor (Homo sapiens) (UniProt P03372); experiment: qHTS assay to identify small molecule antagonists of the estrogen receptor alpha (ER-alpha) signaling pathway using the BG1 cell line in the presence of 0.1 nM 17-beta-estradiol (AID 1259244); conditions: VM7Luc4E2 (BG1) ERE-luciferase, antagonist mode, 0.1 nM E2, 22 h; at 92.4 µM (top of the series) unless noted; also: nearly all actives have a fitted effect of over 50% in size
[12] = qHTS assay to identify small molecule HDAC inhibitors (AID 1259364); also: top concentration of the series differs between compounds; nearly all actives have a fitted effect of over 45% in size
Outline: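 Wild-type HCT-116 cells, plated overnight at 37 C, exposed to compounds 2 hr at 37 C; luminogenic HDAC-Glo substrate then added 30 min at room temperature. Luminescence reports relative endogenous class I/II HDAC activity.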

[13] = qHTS assay to identify small molecule HDAC inhibitors - cell viability counter screen (AID 1259365); conditions: HCT-116 viability, CellTiter-Glo ATP luminescence, 2 h; at 92.4 µM (top of the series) unless noted; also: nearly all actives have a fitted effect of over 50% in size
Outline: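 HCT-116 wild-type, overnight attachment; 2hr drug exposure, 37C; CellTiter-Glo luminescent ATP readout after 30min RT.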

[14] = qHTS assay to identify small molecule agonists of the sonic hedgehog signaling (Shh) pathway - cell viability counter screen (AID 1259366); also: nearly all actives have a fitted effect of over 50% in size
Outline: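 Compounds in DMSO were pin-transferred onto 3T3 Gli1-Luc cells that had settled 4hr; plates then stood 24hr at 37C and 5% CO2. One hour before the end, CellTiter-Fluor was added and fluorescence recorded.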

[15] = qHTS assay to identify small molecule antagonists of the sonic hedgehog signaling (Shh) pathway - cell viability counter screen (AID 1259367); also: nearly all actives have a fitted effect of over 55% in size
Outline: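 Seed 3T3 Gli1-Luc cells at 2,000 per well; incubate 4 hr; add compound in DMSO, then conditioned medium; incubate at 37C with 5% CO2; add CellTiter-Fluor after 23 hr; read fluorescence 1 hr later.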

[16] = qHTS assay to identify small molecule agonists of the sonic hedgehog signaling (Shh) pathway (AID 1259368; calls by dose curve;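 also: NIH/3T3-derived 3T3Gli1-Luc cells carrying a stable Gli1-driven firefly luciferase reporter; nearly all actives have a fitted effect of over 15% in size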); conditions: NIH/3T3 Gli1-Luc reporter, luciferase, 24 h, active compounds read high; at 92.4 µM (top of the series) unless noted
Outline: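 NIH/3T3-derived 3T3Gli1-Luc cells with stably integrated Gli1-driven firefly luciferase, 2,000 cells/well, compounds added after 4 hr. Incubated 24 hr at 37C, 5% CO2; luminescence read after 30 min with luciferase reagent at room temperature.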

[17] = qHTS assay to identify small molecule antagonists of the sonic hedgehog signaling (Shh) pathway (AID 1259369; calls by dose curve; also: nearly all actives have a fitted effect of over 45% in size)
Outline: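 NIH/3T3-derived Gli1-Luc reporter cells plated 4 h, dosed with compound, then stimulated with conditioned medium for 24 h at 37 C. Firefly luciferase luminescence read after 30 min with detection reagent at room temperature.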

[18] = biological target: Estrogen receptor beta (Homo sapiens) (UniProt Q92731); experiment: qHTS assay to identify small molecule agonists of the estrogen receptor beta (ER-beta) signaling pathway (AID 1259377; active = well fitted activation curve with a large enough effect in the signal ratio in the repeat runs, not every such curve was filed as active; the % refers to the signal ratio); conditions: ER-beta-UAS-bla HEK293T, beta-lactamase FRET ratio, 16 h; at 92.4 µM (top of the series) unless noted
[19] = biological target: Estrogen receptor beta (Homo sapiens) (UniProt Q92731); experiment: qHTS assay to identify small molecule antagonists of the estrogen receptor beta (ER-beta) signaling pathway (AID 1259378; active = well fitted inhibition curve with a large enough effect in the signal ratio in the repeat runs, not every such curve was filed as active; the % refers to the signal ratio); conditions: ER-beta-UAS-bla HEK293T, beta-lactamase FRET ratio, 16 h; at 92.4 µM (top of the series) unless noted
Outline: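 ER-beta-UAS-bla HEK293T cells in 2% charcoal-stripped FBS medium treated with compound plus 1nM final 17-beta-estradiol for 16 hr at 37C. Beta-lactamase reporter read by FRET substrate fluorescence after 2 hours at room temperature.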

[20] = A CellTox Green Cytotoxicity Assay to monitor cytotoxicity in HEK293 cells - 8 hour (AID 1224884); also: nearly all actives have a fitted effect of over 35% in size
Outline: as §3
% is scaled to controls: 0 for no effect and ±100 for the full control effect.

O=[N+]([O-])OCC(CO[N+](=O)[O-])(CO[N+](=O)[O-])CO[N+](=O)[O-]
inactive: Potency [1] | Potency [2] | activity change, negative = cytotoxic [3] 3.63% | activity change, negative = cytotoxicity [4] 2.14% | Potency [5] | activity change, negative = cytotoxicity [6] 4.65% | Potency [7] | Potency [8] | viability change, negative = cytotoxic ([9]; at 92.4 µM (top of the series)) 2.42% | Potency [10] | activity change, negative = inhibition [11] -2.2% | Potency [12] | activity change, negative = cytotoxicity [13] -2.05% | Potency [14] | Potency [15] | activity change [16] -0.0079% | Potency [17] | activation [18] 0.973% | activity, negative = inhibition [19] -7.23%

Cc1c([N+](=O)[O-])cccc1[N+](=O)[O-]
inactive: Potency [1] | Potency [2] | Potency [20] | activity change, negative = cytotoxic [3] 0.162% and 2.15% | activity change, negative = cytotoxicity [4] -0.249% and 8.79% | Potency [5] | activity change, negative = cytotoxicity [6] -1.83% and 3.97% | Potency [7] | Potency [8] | viability change, negative = cytotoxic ([9]; at 92.4 µM (top of the series)) -1.23% and 0.979% | Potency [12] | activity change, negative = cytotoxicity [13] -1.77% and -0.156% | Potency [14] | Potency [15] | activity change [16] -0.279% and 0.372% | Potency [17]

N#CBr
inactive: Potency [1] | Potency [2] | Potency [20] | activity change, negative = cytotoxic [3] -3.13% | activity change, negative = cytotoxicity [4] 4.3% | Potency [5] | activity change, negative = cytotoxicity [6] -12.9% | Potency [7] | Potency [8] | viability change, negative = cytotoxic ([9]; at 92.4 µM (top of the series)) -0.7% | Potency [10] | activity change, negative = inhibition [11] 7.5% | Potency [12] | activity change, negative = cytotoxicity [13] 0% | Potency [14] | Potency [15] | activity change [16] -0.634% | Potency [17] | activation [18] -1.86% | activity, negative = inhibition [19] 0.629%

C/C1=C2N=C(/C=C3N=C(/C(C)=C4\[N-][C@@](C)([C@@H]5N=C1[C@](C)(CCC(=O)NC[C@@H](C)OP(=O)([O-])O[C@H]1[C@@H](O)[C@@H](n6cnc7cc(C)c(C)cc76)O[C@@H]1CO)[C@H]5CC(N)=O)[C@@](C)(CC(N)=O)[C@@H]4CCC(N)=O)[C@@](C)(CC(N)=O)[C@@H]\3CCC(N)=O)C(C)(C)[C@@H]/2CCC(N)=O.[C-]#N.[Co+3]
active: Potency [8] 11.9 µM
inactive: Potency [1] | Potency [2] | Potency [20] | activity change, negative = cytotoxic [3] -4.97% [at 35.3 µM] | activity change, negative = cytotoxicity [4] -10.7% [at 35.3 µM] | Potency [5] | activity change, negative = cytotoxicity [6] 6.03% [at 35.3 µM] | Potency [7] | viability change, negative = cytotoxic ([9]; at 42.5 µM (top of the series)) -20.1% | activity change, negative = inhibition [11] -26.5% [at 42.5 µM] | Potency [12] | activity change, negative = cytotoxicity [13] -10.7% [at 42.5 µM] | Potency [14] | Potency [15] | activity change [16] 2.02% [at 42.5 µM] | Potency [17] | activation [18] -1.92% [at 42.5 µM] | activity, negative = inhibition [19] 13.7% [at 42.5 µM]
